Test results from PubChem BioAssay AID901 (National Center for Advancing Translational Sciences (NCATS), 2007).
Only a part is listed here, and it is no random draw. Inconclusive results are not listed. Calls of active or inactive are those of the source. The call rests on the fitted dose curve; in most records, active means well fitted curve in the direction sought with a large enough effect in the signal ratio (not every such curve was filed as active); inconclusive means small, poorly fitted or top-dose-only effect, or a change in a side signal; inactive means no such curve, though single readings can be large or run the other way; the % refers to the signal ratio.

Chains of the proteins cited; added tags and fusions are not shown.
UniProt P97697, whole entry: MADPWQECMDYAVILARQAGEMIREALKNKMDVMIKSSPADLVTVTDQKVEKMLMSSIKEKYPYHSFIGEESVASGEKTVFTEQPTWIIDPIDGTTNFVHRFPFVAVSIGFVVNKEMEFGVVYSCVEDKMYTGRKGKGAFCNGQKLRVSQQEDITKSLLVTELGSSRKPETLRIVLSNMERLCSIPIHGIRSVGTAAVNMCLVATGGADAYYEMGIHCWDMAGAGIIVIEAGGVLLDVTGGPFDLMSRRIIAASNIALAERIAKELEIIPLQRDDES

What follows are compounds tested against Inositol monophosphatase 1 (Rattus norvegicus) (UniProt P97697) (assay: qHTS Assay for Identifying the Cell-Membrane Permeable IMPase Inhibitors). Settings: CHO-M1 cells, HTRF TR-FRET ratio; at 46.1 µM (top of the series) unless noted.
Source text: NCGC IMPase Assay Overview
Lithium has been widely used for the treatment of bipolar disorder. But lithium has a narrow therapeutic index and it can cause side effects such as thirst, weight gain, tremor, polyuria and memory problems. Although the mechanism for lithium action in treatment of bipolar disorder is still not fully understood, inhibition of inositol monophosphatase (IMPase) and the subsequent depletion of the inositol pool in living cells have been implicated as the primary therapeutic benefit of lithium therapy. Therefore, a selective IMPase inhibitor with reduced side effects might be a good drug candidate to replace lithium for the treatment of bipolar disorder. Several IMPase inhibitors have been discovered previously. However, they are not suitable for therapeutic use because of their poor cell membrane penetrability or oral bioavailability; the development of new cell-permeable IMPase inhibitors is needed.
IMPase catalyzes the hydrolysis of inositol-1-phosphate (IP1) to release free inositol. Binding of an agonist to a Gq coupled GPCR results in the activation of PLC, which hydrolyzes the PIP2 to form inositol-1,4,5-trisphosphate (IP3) and diacyl glycerol (DAG). While DAG activates protein kinase C (PKC), IP3 triggers the elevation of intracellular free Ca2+. The IP3 is very rapidly inactivated by hydrolysis to IP2, IP1 and then inositol by a series of enzymes including IMPase. Free inositols are used for synthesis of PI and thus start another inositol cycle.
To identify new cell-permeable IMPase inhibitors, we developed a cell-based IMPase assay in which the cytosolic IP1 is measured by a time-resolved fluorescence resonance energy transfer (TR-FRET) assay. In this assay, an IP1 specific antibody is used to detect the labeled IP1 tracer. When the cell lysate contains the elevated IP1 due to the inhibition of IMPase, the TR-FRET between the labeled antibody and IP1 tracer is disrupted resulting in a reduction in the total signal. Since the TR-FRET is used, this cell-based assay is a homogenous assay without cell wash and medium change that is suitable for assay miniaturization and HTS.
NCGC IMPase Assay Protocol Summary
A Chinese hamster ovary (CHO) cell line stably expressing the M1 receptor (CHO-M1) was obtained from ATCC and maintained in F-12 Kaighn's media (Invitrogen, Carlsbad, CA, 21127) supplemented with 10 % FBS, 100 units/ml penicillin, 100 ug/ml streptomycin and 250 ug/ml geneticin at 37C, 5% CO2 in a humidified atmosphere. Before the assay, aliquots of cells were frozen and stored at -135C. The assay was performed in 1536-well format. Data are reported for both the ratio of the two emission wavelengths, and also for the component 'donor' channel, Em2=620. […] AC50 values were determined from concentration-response data modeled with the standard Hill equation.
IMPase 1536-well assay protocol:
(1) Plate 4 ul/well (2000 cells) of cell suspension from frozen CHO-M1 Cells in white, tissue culture treated 1536-well plates that are cultured at 37C, 5 % CO2 for 16 to 30 hours.
(2) Add 23 nl/well of compound in DMSO solution. The final titration for each compound was between 0.6 nM and 46 uM.
(3) Add 1 ul of carbachol (50 uM in stimulation buffer containing10mM HEPES, 1mM CaCl2, 0.5 mM MgCl2, 4.2 mM KCl, 146 mM NaCl, 5.5 mM glucose, 50mM LiCl, pH 7.4.
(4) Incubation at 37C, 5 % CO2 for 30 min.
(5) Add 1 ul/well of d2-conjugated IP1 (d2-IP1) and 1 ul/well of Eu+ cryptate conjugated anti-IP1 antibody (Eu+-Ab) prepared in the cell lysis buffer, both from the IP-One kit (Cisbio, MA).
(6) Incubate at room temperature for 10 minutes.
(7) Detect the assay plate (Ex = 320, Em1 =665 and Em2 620) in a ViewLux plate reader.
inositol monophosphatase, IMPase, IMPase inhibitor, lithium, bipolar disorder, IP-One, HTRF, qHTS, NIH roadmap, NCGC
Note: In the gene ID and protein GI references for this assay, rat IMPase is referenced instead of hampster as hamster accession numbers were not available.
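Further: plate controls were DMSO basal wells for no effect and reference inhibitor wells for full effect; higher means more IMPase inhibition seen as more IP1 and lower FRET ratio.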

Row | SMILES | inhibition (IP1 accumulation)
1 | Cc1ccc(C)c(NP(C)(=O)Oc2ccccc2)c1 (stereo not given) | inactive: -1.62%
2 | Cc1cc(C)cc(OP(C)(=O)Nc2ccccn2)c1 (stereo not given) | inactive: 4.28%
3 | Cc1cc(C)cc(OP(C)(=O)Nc2ccc(C)cc2C)c1 (stereo not given) | inactive: -6.41%
4 | COc1ccccc1OP(C)(=O)Nc1c(C)cccc1C (stereo not given) | inactive: 2.2%
5 | Cc1nc2ccc3ccccc3c2s1.O=[N+]([O-])c1cc([N+](=O)[O-])c(O)c([N+](=O)[O-])c1 | inactive: -1.16%
6 | CP(=O)(Nc1ccccn1)Oc1ccc(Cl)cc1 (stereo not given) | inactive: 25.6%
7 | CCOC(=O)c1ccc(NP(C)(=O)Oc2ccc(OC)cc2)cc1 (stereo not given) | inactive: -0.648%
8 | CCOP(C)(=S)SCC(=O)NC(C)C(=O)O (stereo not given) | inactive: -4.78%
9 | CP(=O)(NC(=O)Nc1ccccc1)Oc1ccccc1 (stereo not given) | inactive: 0.52%
10 | Cc1cc(C)cc(OP(C)(=O)Nc2ccc(SC(F)(F)F)cc2)c1 (stereo not given) | inactive: 1.35%
11 | Cc1cccc(C)c1OP(C)(=O)Nc1ccc(SC(F)(F)F)cc1 (stereo not given) | inactive: 10.2%
12 | CP(=S)(Nn1cnnc1)Oc1ccccc1 (stereo not given) | inactive: -0.0011%
13 | COc1ccc(OP(C)(=O)Nc2cccc(F)c2)cc1 (stereo not given) | inactive: 4.15%
14 | COc1ccccc1OP(C)(=O)Nc1ccc(C)cc1 (stereo not given) | inactive: -1.13%
15 | Cc1ccc(NP(C)(=O)Oc2ccccc2)c(C)c1 (stereo not given) | inactive: 6.42%
16 | CP(=O)(Nc1ccccn1)Oc1ccccc1 (stereo not given) | inactive: -1.05%
17 | COc1ccccc1OP(C)(=O)Nc1ccc(C)cc1C (stereo not given) | inactive: 14.3%
18 | CCc1ccc(OP(C)(=O)O)cc1 | inactive: 3.48%
19 | Cc1c(NP(C)(=O)Oc2ccc(C(C)C)cc2)c(=O)n(-c2ccccc2)n1C (stereo not given) | inactive: 0.984%
20 | COc1ccc(OP(C)(=O)Nc2ccccn2)cc1 (stereo not given) | inactive: -0.357%

Row | SMILES | inhibition (IP1 accumulation)
21 | CN(C)CCOC(=O)C(O)(c1ccccc1)C1CCCC1 (stereo not given) | inactive: 15.4%
22 | Cc1nc2ccc3ccccc3c2o1.O=[N+]([O-])c1cc([N+](=O)[O-])c(O)c([N+](=O)[O-])c1 | inactive: 6.95%
23 | COc1ccccc1OP(C)(=O)Nc1ccc(C)c(C)c1 (stereo not given) | inactive: 1.01%
24 | COc1ccc(OP(C)(=O)Nc2ccccc2Br)cc1 (stereo not given) | inactive: 1.82%
25 | C/C1=C2N=C(/C=C3N=C(/C(C)=C4\[N-][C@@](C)([C@H]5N=C1[C@@](C)(CCC(=O)NC[C@H](C)OP(=O)([O-])O[C@@H]1[C@H](O)[C@H](n6cnc7cc(C)c(C)cc76)O[C@@H]1CO)[C@@H]5CC(N)=O)[C@](C)(CC(N)=O)[C@H]4CCC(N)=O)[C@@](C)(CC(N)=O)[C@@H]\3CCC(N)=O)C(C)(C)[C@@H]/2CCC(N)=O.[C-]#N.[Co+3] | inactive: -11.2% [at 20.6 µM]
26 | CP(=O)(OC12CC3CC(CC(C3)C1)C2)OC12CC3CC(CC(C3)C1)C2 | inactive: -5.86%
27 | CC(C)(C)c1ccc(OP(C)(=O)O)cc1 | inactive: 9.28%
28 | CP(=O)(Nc1ccc(Cl)cc1)Oc1ccc(F)cc1 (stereo not given) | inactive: 4.87%
29 | COc1ccccc1OP(C)(=O)Nc1c(C)n(C)n(-c2ccccc2)c1=O (stereo not given) | inactive: 2.88%
30 | CP(=O)(Oc1ccccc1)N1CCOC1=O (stereo not given) | inactive: 2.98%
31 | CCN(CC)CC(O)COC(=O)C(O)(c1ccccc1)C1CCCCC1 (stereo not given) | inactive: 10.3%
32 | N#[O+].[C-]#N.[C-]#N.[C-]#N.[C-]#N.[C-]#N.[Fe+2].[Na+].[Na+] | inactive: -2.3%
33 | Cc1ccccc1NP(C)(=O)Nc1ccccc1C | inactive: -6.06%
34 | CP(=O)(Nc1ccc2c(c1)OCCO2)Oc1ccccc1 (stereo not given) | inactive: -4.98%
35 | CCOP(C)(=S)SCC(=O)NC(C)(CC)C(=O)O (stereo not given) | inactive: -10.5% [at 1.84 µM]
36 | CN(C)CCOC(=O)C(O)(c1ccccc1)C1CCCCC1 (stereo not given) | inactive: 35.1%
37 | COc1ccc(OP(C)(=O)Nc2cccc(Br)c2)cc1 (stereo not given) | inactive: 4.01%
38 | CP(=O)(Nc1ccccc1)Oc1ccc(F)cc1 (stereo not given) | inactive: 0.65%
39 | CCN(CC)CCCOC(=O)C(O)(c1ccccc1)C1CCCCC1 (stereo not given) | inactive: 18.2%
40 | CP(=O)(Nc1ccccc1F)Oc1ccccc1 (stereo not given) | inactive: -3.45%
